Drawing on US20150020221A1, this text covers fold increase co-immunoprecipitated with PARP1 (Dox-treated versus untreated cells) for one substance.

In the test the target is PARP1 (endogenous, Hela cell lysate) (human) (UniProt P09874). Briefly: scanning densitometry of PARP1 immunoprecipitates from Hela cells (FIG. 4B).

Substance “BBAP (endogenous, Hela cell lysate) (from UniProt Q8TDB6 2-740) (enzyme)” yielded a fold increase co-immunoprecipitated with PARP1 (Dox-treated versus untreated cells) of 1.8 fold.
